The list shows a part of the results, in another mix than the full data. Active and inactive are the calls of the source.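 Rule for the calls: active = inhibition of at least 30% at 20 µM; inactive = the rest.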
biological target: Carboxy-terminal domain RNA polymerase II polypeptide A small phosphatase 1 (Homo sapiens) (UniProt Q9GZU7); assay: SCP1 dephosphorylation blockade at one dose – biochemical, colorimetric, single concentration, confirmation (AID 540281); settings: recombinant SCP-1 catalytic domain, phosphate release, malachite green absorbance; at 20 µM; active compounds read high;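 note: plate controls were DMSO with enzyme for no effect and buffer wells lacking enzyme for full effect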
Outline: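 Assay system: SCP-1 catalytic fragment (residues 76-261). Schedule: 45 min enzyme reaction at room temperature. Medium: Tris acetate pH 5.5 buffer with Mg2+ and detergent. Compound: one dose, 20 µM final, 1.0% DMSO. Reagent: Phospho-17-mer peptide substrate. Detection: absorbance at 630 nm, free phosphate colorimetry.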

Protein sequences, listed by entry. Tags and fused reporters are not part of them. Residues count along the entry.
UniProt Q9GZU7, 76-261 limits assumed: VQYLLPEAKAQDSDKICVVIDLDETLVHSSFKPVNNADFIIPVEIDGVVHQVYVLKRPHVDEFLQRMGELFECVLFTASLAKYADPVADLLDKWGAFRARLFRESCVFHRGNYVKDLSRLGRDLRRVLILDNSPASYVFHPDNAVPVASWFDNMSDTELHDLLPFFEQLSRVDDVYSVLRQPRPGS

Row | SMILES | inhibition
1 | O=C1C(O)=C([N+](=O)[O-])C(=O)C(O)=C1[N+](=O)[O-] | active: 68.2%

Source: PubChem BioAssay AID540281 (Sanford-Burnham Center for Chemical Genomics, 2011)
